Ab-91 heavy chain CDR variants: yeast mating affinities

Data: MIT Lincoln Laboratory AlphaSeq set, Engelhart et al. 2022, doi:10.1038/s41597-022-01779-4, as distributed in FLAb.

Target peptide (SARS-CoV-2 spike, HR2 region): PDVDLGDISGINAS

Ab-91 is the parent antibody, in scFv form: VL, then the linker GGGGSGGGGSGGGGS, then VH. The light chain is unchanged in all variants.
VL: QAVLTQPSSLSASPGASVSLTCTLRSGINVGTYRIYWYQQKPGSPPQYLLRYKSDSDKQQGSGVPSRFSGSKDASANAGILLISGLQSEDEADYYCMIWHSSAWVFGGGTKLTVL
VH: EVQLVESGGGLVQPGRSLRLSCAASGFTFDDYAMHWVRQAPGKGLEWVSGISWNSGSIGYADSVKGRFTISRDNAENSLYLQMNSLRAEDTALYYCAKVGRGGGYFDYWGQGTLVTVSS

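Phage display of a naive human antibody library on the peptide gave the parent. In library AAYL51, one, two or three CDR residues were substituted; doubles and triples were drawn at random. The assay is AlphaSeq: two haploid yeast populations carry antibody and antigen on their surface. The frequency of each diploid, read from paired DNA barcodes, reflects how well the two displayed proteins bind. The ratio of observed to expected reads was calibrated, replicate by replicate, on BCL2-family standards whose Kd was known from biolayer interferometry. There are three technical replicates.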

The parent's heavy chain CDRs are GFTFDDYAMH, GISWNSGSIGYADSVK, VGRGGGYFDY; each variant's own CDRs replace them letter for letter.
The read-out is the apparent dissociation constant on a log10 scale (nM): the lower, the stronger.
A pair that was not seen in that replicate is written "n.d."; this usually means weak binding, but a binder can also be missed.

log10 Kd (nM) by replicate | CDR-H1 | CDR-H2 | CDR-H3
4.33 6.35 5.18 | GFTFDDYAMV | GISWNSASIGYADSVK | IGRGGGYFDY
n.d. n.d. n.d. | GFTFADYAMH | GISWNSGSIGYADSVK | TGRGPGYFDY
n.d. n.d. n.d. | GFTFDDYAMH | GISCNSGSIGYADSVE | VGRGGGYFDH
n.d. n.d. n.d. | GFTFDDYAMH | GISWNMGSITYADSYK | VGRGGGYFDY
n.d. n.d. n.d. | GFTFQDNAMH | GISWNSGSIGYADSVK | VGRGGGYQDY
5.05 n.d. n.d. | GFTFDDYAMH | GISWHSGQIRYADSVK | VGRGGGYFDY
6.26 n.d. 5.30 | GFTFDDYAMH | GISWTSRSIGYADSVK | VGRGGGYFDI
n.d. n.d. n.d. | TFTFDDYAMH | YISWNSGSIGYADSVK | VGRGGGYFDY
3.81 n.d. 4.52 | GFTFCDYAMH | GISWNSGSIGYADSVK | VGRGWGYFDY
n.d. n.d. n.d. | GFTFDIYAAH | GISWNSHSIGYADSVK | VGRGGGYFDY
5.78 5.11 5.72 | GFSFDDYAMH | GICWNSGSIGYAKSVK | VGRGGGYFDY
n.d. n.d. n.d. | GFTFDDYAMP | GISWNSGSIGYADSVK | VFRGYGYFDY
n.d. n.d. n.d. | GFTFDDYAMH | IISWNSGSIGYADSVK | VGCGGGYFDY
4.84 n.d. n.d. | GFTEDDYAMH | GIAWNSGSIGYADQVK | VGRGGGYFDY
2.26 2.57 2.19 | GFTFDDYAMH | GIGWNSGSIGYANSVK | VGMGGGYFDY
n.d. n.d. n.d. | GFTFDDYAMH | GISWNCLSITYADSVK | VGRGGGYFDY
4.80 4.09 4.58 | GFTHDDYAIH | GISWNSGSIGYADSVK | VGRGGGYFDY
n.d. n.d. n.d. | GLTFFDYAMH | GISWNSGSIGFADSVK | VGRGGGYFDY
0.92 0.99 0.36 | GFVFQDYAMH | GISWNSGSIGYADSVK | VGRGGRYFDY
n.d. n.d. 4.82 | GFTFDDYAMH | GISWNSGSIGYADSTK | VGRGGGYQDY
4.84 n.d. n.d. | GFTFDDYAMH | LQSWNSGSIGYADSVK | VGRGGGYFDP
3.79 4.36 4.74 | GFTFDDYAMH | GSSWNSGSIGYADSVK | VGQGTGYFDY
3.43 4.37 4.04 | GWFFDDYAMH | GISWNSGSIGYADSVK | VGRGGGYFDL
n.d. n.d. n.d. | GFGFDDYAMH | GMSWNSGSIGYADSVK | VGRGGGKFDY
n.d. n.d. n.d. | GFTFDDYAMF | GISWNSGSIGYADGVK | VGRGGGYHDY
n.d. n.d. n.d. | GFTFDDYAMY | GIGWNSGSIGYADSVK | VGRGVGYFDY
n.d. n.d. n.d. | GFTFDDYAMH | GISSNSGSIGYSDSVK | VGRGGGYFRY
4.77 5.02 n.d. | GFTFDDYAMG | GISWNSLSIGYADSVK | VGRGGGGFDY
4.68 n.d. n.d. | GFTFDDYADH | GISWYSGSYGYADSVK | VGRGGGYFDY
n.d. n.d. n.d. | GFTFDDYAMH | GISWFSGSCGYFDSVK | VGRGGGYFDY
n.d. n.d. n.d. | GFTFDDYAMH | GQSWNSGSIGYADSVK | VGGGGGYFYY
4.54 n.d. 4.86 | GFCFDDMYMH | GISWNSGSIGYADSVK | VGRGGGYFDY

The opening 2 entries, copied out:

CDR-H1 | CDR-H2 | CDR-H3 | log10 Kd (nM) by replicate
GFTFDDYAMV | GISWNSASIGYADSVK | IGRGGGYFDY | 4.33 6.35 5.18
GFTFADYAMH | GISWNSGSIGYADSVK | TGRGPGYFDY | n.d. n.d. n.d.

In this assay the parent's reference entry averaged 1.86; its copy inside this library read 0.88.
Background: pairings of library AAYL51 with three empty control strains gave a value in 21% of cases (median 4.54, 5th percentile 3.26). Values in that range, when seen in few replicates, are hard to tell from nonspecific mating.